How the values were obtained:
arterial blood pressure = assay: Anesthetized rabbit experiments: arterial blood pressure and heart rate after infusion; assay type: in vivo, New Zealand white rabbits; conditions: end of 10 min infusion at highest dose tested (150-200 μg×kg^-1×min^-1), decrease as percentage of basal value; further: key: Inactive: No decrease or decrease less than 5%; Active: Decrease between 5 and 40%; Very Active: Decrease greater than 40%
Protocol: In the anesthetized rabbits, the decrease of arterial blood pressure and the effect on the heart rate after infusion of the test compounds was determined.
New Zealand white rabbits (2.5-3 kg) were anesthetized (30 mg×kg^-1 pentobarbitone, i.v., supplemental doses as needed). Tracheotomy was performed, and an intra-tracheal cannula was inserted. No artificial ventilation was applied and body temperature was maintained at 37°-38° C.
Left ventricular pressure (LVP) was measured (Millar Mikro-Tip catheter via the right carotid artery with transducer in the left ventricle). The LVP signal was differentiated electronically to obtain the rate of change of LVP (LV dP/dt). The heart rate (HR) was derived from the LVP pulse signal. The jugular vein was cannulated for infusion of the test compounds. Aortic blood pressure (SAP and DAP) was monitored (Gould-Statham pressure transducer) by inserting a polyethylene catheter filled with heparin (50 IU×ml^-1) through the femoral artery into the abdominal aorta. Heparin (150 IU×kg^-1, i.v.) was administered to prevent blood clotting.
After completion of surgical procedures, the rabbits were allowed to recover for 15 minutes before drug administration was started.
Drugs were infused at constant rate (0.5 ml×min^-1) for 10 minutes at various doses, resulting in a typical dose range of 2.0, 20.0 and 200 μg×kg^-1 ×min^-1 (2.5 kg rabbit). […]

contracted rat aorta = assay: In vitro rat aorta assay: relaxation of aorta strips contracted with phenylephrine; assay type: cell-based; conditions: read-out: EC50 (mean): concentration at which residual contraction is 50% of maximum; rat aorta strips contracted with 10^-7 M phenylephrine
Protocol: In the rat aorta assay, the compounds according to the invention are--in contrast to e.g. nifedipine--able to effect an up to 100% relaxation of a contraction of the rat aorta induced by phenylephrine.
Strips of thoracial rat aortae (without aortic arch, helically cut; length 1-1.5 cm; width about 2 mm) were place in an organ bath [20 ml; Krebs Ringer medium bubbled with O2 /CO2 (95/5%) at 37° C.]. A resting tension of 0.5 g was applied and the preparations were equilibrated during 100 min (fresh buffer solution every 20 min). The strips were isotonically contracted with 10^-7 M phenylephrine.
Drug-induced relaxation was tested at increasing concentration (half log steps), till maximal or full relaxation (corresponding to basal precontraction value of organ length) had been reached.
Responses were calculated as change in organ length relatively to maximal displacement by contraction, EC50 values corresponding to the drug concentration at which residual contraction is 50% of maximum.

SMILES: O=C(O)C1CSC(c2cc([N+](=O)[O-])cc([N+](=O)[O-])c2OCCO[N+](=O)[O-])N1 (centres unmarked)
- Activity with regard to the lowering of blood pressure (arterial blood pressure): Active
- EC50 (contracted rat aorta): 0.22 µM
